Values quoted from earlier work in patent publication US4563479A, “Synergistic radiation protective pharmaceutical compositions” (Chinoin Gyogyszer es Vegyeszeti Termekek Gyar RT, priority 1979, dated 1986).
Where a name gives a salt, the structure may show the parent alone. Read-outs that look alike come from different tables or passages of the source.

Settings: LD50 p.o. / radiation protective dose, cited from earlier work

| Structure (SMILES) | Therapeutic index | Therapeutic index (listed as aminoethyl-isothiuronium-chloride-hydrochloride) |
| --- | --- | --- |
| N=C(N)SCCN [aminoethyl-isothiuronium-bromide-hydrobromide] | 1.20 |  |
| N=C(N)SCCN [AET, aminoethyl-isothiuronium-chloride-hydrochloride] |  | 1.78 |
